From publication PMC9257625 (RSC Chemical Biology, 2022)

By UniProt entry, the sequences of proteins in these tests, tags left out. Residues count along the entry.
UniProt P00791, 60-385: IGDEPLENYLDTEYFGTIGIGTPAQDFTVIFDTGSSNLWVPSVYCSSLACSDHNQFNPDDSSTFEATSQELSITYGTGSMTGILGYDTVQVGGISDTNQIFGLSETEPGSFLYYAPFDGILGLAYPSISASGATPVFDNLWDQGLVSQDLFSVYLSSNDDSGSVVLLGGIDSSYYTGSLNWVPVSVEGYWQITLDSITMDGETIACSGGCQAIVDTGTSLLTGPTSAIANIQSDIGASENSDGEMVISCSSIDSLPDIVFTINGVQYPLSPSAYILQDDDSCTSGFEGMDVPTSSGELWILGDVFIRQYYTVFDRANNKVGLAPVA
UniProt P06873, 106-384: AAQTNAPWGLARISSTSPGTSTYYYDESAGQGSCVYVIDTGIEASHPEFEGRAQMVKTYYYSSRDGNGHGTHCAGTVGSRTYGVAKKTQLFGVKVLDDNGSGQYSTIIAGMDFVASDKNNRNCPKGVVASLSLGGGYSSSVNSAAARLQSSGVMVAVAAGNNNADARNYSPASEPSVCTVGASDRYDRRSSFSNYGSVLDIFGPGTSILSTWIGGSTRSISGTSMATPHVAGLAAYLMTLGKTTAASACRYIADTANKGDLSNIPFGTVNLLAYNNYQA

Legend:
chymotrypsin = chymotrypsin (Bos taurus, UniProt P00766); experiment: Protease stability assay, chymotrypsin; assay type: in vitro ADME, bovine
pepsin = pepsin (Sus scrofa, UniProt P00791); experiment: Protease stability assay, pepsin; assay type: in vitro ADME, porcine
proteinase K = proteinase K (Parengyodontium album, UniProt P06873); experiment: Protease stability assay, proteinase K; assay type: in vitro ADME, fungal

CC(=O)N[C@@H](CC(C)C)C(=O)N[C@H](C(=O)N[C@@H](Cc1ccccc1)C(=O)N[C@@H](CCC(=O)O)C(=O)N[C@@H](Cc1cnc[nH]1)C(=O)N[C@@H](Cc1ccc(O)cc1)C(=O)N[C@@H](Cc1c[nH]c2ccccc12)C(=O)N[C@@H](C)C(=O)N[C@@H](CCC(N)=O)C(=O)N[C@@H](CC(C)C)C(=O)N[C@H](C(=O)N[C@@H](CO)C(N)=O)[C@@H](C)O)[C@@H](C)O [Peptide 1]
≤ 1 h: Time to cleavage by chymotrypsin (chymotrypsin) | Time to cleavage by pepsin (pepsin) | Time to cleavage by proteinase K (proteinase K)
